The values that follow come from patent publication US20230303564A1, “PYRIMIDINE RING COMPOUND” (MEDSHINE DISCOVERY INC., priority 2020, published 2023).

Sequences of proteins named here, by UniProt entry; tags and fusion partners are left off.
UniProt Q00534, whole entry: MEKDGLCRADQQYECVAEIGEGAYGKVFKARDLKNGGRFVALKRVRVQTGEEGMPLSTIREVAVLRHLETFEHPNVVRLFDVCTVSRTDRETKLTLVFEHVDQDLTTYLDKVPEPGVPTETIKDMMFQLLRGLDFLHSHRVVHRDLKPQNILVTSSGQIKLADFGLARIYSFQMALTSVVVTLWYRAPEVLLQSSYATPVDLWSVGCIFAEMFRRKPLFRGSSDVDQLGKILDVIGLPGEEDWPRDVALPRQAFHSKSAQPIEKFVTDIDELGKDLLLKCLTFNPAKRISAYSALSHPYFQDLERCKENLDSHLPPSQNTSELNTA
UniProt P11802, whole entry: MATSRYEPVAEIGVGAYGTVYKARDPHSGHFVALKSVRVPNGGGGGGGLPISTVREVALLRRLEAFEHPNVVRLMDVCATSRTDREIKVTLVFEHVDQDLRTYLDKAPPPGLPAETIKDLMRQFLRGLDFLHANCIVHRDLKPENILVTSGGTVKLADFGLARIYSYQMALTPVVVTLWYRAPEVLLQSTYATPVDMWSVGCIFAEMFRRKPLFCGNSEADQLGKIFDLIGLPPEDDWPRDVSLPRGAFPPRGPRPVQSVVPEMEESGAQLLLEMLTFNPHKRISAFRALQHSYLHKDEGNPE
UniProt P50613, whole entry: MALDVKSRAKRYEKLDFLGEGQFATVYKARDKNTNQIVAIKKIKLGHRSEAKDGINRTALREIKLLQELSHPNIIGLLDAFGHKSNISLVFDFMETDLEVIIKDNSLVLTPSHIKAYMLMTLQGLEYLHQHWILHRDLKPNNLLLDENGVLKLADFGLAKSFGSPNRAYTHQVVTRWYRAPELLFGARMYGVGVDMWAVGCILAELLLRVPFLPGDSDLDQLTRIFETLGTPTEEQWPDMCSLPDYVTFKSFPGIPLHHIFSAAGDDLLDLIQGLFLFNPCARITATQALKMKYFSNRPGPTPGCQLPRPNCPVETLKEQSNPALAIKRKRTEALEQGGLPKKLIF
UniProt P50750, whole entry: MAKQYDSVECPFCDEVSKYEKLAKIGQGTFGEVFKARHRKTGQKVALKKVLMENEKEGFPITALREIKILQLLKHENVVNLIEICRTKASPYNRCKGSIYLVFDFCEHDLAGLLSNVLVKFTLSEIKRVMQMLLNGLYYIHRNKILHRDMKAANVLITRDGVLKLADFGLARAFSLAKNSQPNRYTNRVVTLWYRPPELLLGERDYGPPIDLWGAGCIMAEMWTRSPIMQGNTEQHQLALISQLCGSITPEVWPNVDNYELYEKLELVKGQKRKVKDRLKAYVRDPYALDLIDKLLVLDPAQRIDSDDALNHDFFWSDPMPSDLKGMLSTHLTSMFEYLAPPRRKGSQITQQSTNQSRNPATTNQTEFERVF
UniProt P06493, whole entry: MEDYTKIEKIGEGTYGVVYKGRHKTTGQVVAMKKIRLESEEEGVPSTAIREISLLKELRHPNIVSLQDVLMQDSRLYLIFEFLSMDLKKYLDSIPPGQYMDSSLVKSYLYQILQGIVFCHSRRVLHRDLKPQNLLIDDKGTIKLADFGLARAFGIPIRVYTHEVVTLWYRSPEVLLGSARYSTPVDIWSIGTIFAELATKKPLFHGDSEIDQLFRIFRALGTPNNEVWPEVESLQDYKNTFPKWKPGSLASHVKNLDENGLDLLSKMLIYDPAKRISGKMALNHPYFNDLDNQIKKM
UniProt P24385, whole entry partner: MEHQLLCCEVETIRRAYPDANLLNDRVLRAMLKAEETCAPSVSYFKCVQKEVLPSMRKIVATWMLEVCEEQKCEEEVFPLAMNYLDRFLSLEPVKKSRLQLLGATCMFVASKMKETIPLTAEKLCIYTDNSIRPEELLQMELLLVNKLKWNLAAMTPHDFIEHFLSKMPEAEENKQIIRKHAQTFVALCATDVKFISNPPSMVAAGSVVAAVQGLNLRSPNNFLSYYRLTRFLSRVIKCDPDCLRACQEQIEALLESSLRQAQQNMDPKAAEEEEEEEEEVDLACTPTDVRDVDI
UniProt O60563, whole entry partner: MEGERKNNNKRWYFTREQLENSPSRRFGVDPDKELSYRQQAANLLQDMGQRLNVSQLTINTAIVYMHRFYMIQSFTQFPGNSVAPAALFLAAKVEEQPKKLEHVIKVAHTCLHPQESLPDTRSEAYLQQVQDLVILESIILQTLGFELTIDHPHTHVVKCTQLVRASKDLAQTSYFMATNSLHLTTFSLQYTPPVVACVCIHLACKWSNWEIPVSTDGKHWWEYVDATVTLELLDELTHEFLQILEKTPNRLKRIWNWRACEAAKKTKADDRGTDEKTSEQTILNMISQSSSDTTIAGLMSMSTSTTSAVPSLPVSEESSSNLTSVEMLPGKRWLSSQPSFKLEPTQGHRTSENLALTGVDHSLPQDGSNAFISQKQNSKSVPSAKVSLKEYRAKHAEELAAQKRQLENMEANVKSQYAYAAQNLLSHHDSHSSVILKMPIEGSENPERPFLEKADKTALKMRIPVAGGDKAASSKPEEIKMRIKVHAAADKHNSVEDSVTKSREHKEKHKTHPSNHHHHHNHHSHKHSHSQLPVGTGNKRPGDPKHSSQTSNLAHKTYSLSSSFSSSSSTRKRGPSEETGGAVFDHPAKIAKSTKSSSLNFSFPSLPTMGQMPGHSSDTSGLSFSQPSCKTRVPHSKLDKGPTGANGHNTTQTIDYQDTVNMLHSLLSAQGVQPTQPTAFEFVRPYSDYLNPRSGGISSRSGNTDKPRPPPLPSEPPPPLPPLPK
UniProt P51946, whole entry partner: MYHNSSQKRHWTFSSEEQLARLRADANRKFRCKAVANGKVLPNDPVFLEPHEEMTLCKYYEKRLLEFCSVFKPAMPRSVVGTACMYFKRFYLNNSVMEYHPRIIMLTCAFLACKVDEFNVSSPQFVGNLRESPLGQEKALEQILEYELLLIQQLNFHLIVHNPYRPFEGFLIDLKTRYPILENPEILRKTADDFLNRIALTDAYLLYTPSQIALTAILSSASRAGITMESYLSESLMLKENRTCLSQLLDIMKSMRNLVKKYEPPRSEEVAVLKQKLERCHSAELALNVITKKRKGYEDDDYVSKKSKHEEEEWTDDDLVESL
UniProt P51948, whole entry partner: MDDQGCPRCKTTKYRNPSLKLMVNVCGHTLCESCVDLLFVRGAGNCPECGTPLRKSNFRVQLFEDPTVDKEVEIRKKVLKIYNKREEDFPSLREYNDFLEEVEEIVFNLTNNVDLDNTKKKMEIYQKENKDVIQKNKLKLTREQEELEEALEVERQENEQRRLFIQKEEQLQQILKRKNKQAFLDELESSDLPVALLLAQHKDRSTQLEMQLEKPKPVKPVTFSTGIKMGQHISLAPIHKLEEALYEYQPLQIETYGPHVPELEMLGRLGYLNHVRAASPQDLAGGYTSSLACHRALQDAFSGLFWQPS
UniProt P14635, whole entry partner: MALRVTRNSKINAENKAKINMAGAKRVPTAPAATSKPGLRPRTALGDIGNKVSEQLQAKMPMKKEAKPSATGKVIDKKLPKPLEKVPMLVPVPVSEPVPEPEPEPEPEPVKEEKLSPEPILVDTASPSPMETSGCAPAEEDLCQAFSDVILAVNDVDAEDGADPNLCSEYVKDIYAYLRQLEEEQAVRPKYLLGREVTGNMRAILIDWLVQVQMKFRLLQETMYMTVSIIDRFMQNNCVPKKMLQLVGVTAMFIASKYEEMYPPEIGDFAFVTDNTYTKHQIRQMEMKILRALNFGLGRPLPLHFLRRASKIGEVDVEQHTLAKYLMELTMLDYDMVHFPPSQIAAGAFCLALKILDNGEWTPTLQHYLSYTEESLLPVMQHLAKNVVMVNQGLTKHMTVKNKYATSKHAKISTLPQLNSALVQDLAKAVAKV

Each structure is given as a SMILES string.

One assay concerns the target CDK2/CyclinE1 (Homo sapiens (Human), UniProt P24941). The assay can be described thus: CDK2/CyclinE1 enzyme activity test (ADP-Glo). Particulars: read-out: CDK2/Cyclin E1 IC50, 150 μM ATP, 25° C. 60 minutes. Background: ADP-Glo turns the ADP formed in a reaction into a luminescent signal.
The next assay has as its target CDK6/CyclinD1 (Homo sapiens (Human), UniProt Q00534). In words: CDK6/CyclinD1 enzyme activity test (LANCE Ultra TR-FRET). To be noted: read-out: CDK6/Cyclin D1 IC50, 250 μM ATP, 25° C. 120 minutes. Background: In TR-FRET formats the signal depends on donor and acceptor labels being close together.
The next assay addresses CDK4/CyclinD1 (Homo sapiens (Human), UniProt P11802). The assay can be described thus: CDK4/CyclinD1 enzyme activity test (LANCE Ultra TR-FRET). Particulars: read-out: CDK4/Cyclin D1 IC50, 350 μM ATP, 25° C. 120 minutes.
A further assay concerns the target CDK2/CyclinA2 (Homo sapiens (Human), UniProt P24941). The assay can be described thus: CDK2/CyclinA2 enzyme activity test (ADP-Glo). Particulars: read-out: CDK2/Cyclin A2 IC50, 50 μM ATP, 25° C. 60 minutes.
The next assay deals with CDK7/CyclinH/MAT1 (Homo sapiens (Human), UniProt P50613). The assay can be described thus: CDK7/CyclinH/MAT1 enzyme activity test (ADP-Glo). Format: biochemical. To be noted: read-out: CDK7/Cyclin H IC50, 10 μM ATP, 25° C. 120 minutes.
The next assay has as its target CDK9/CyclinT1 (Homo sapiens (Human), UniProt P50750). In words: CDK9/CyclinT1 enzyme activity test (ADP-Glo). To be noted: read-out: CDK 9/Cyclin T1 IC50, 100 μM ATP, 25° C. 120 minutes.
The target in another assay is CDK1/CyclinB1 (Homo sapiens (Human), UniProt P06493). In words: CDK1/CyclinB1 enzyme activity test (ADP-Glo). To be noted: read-out: CDK1/Cyclin B IC50, 25 μM ATP, 25° C. 120 minutes.

With `C[C@@H]1CN(S(C)(=O)=O)CC[C@@H]1Nc1ncc2cc(C(F)F)nc(NC3CCCC3(F)F)c2n1` (single isomer, unassigned), the IC50 at CDK2/CyclinE1 turned out to be 3.6 nM; at CDK6/CyclinD1, 10.8 nM; on CDK4/CyclinD1, 19.4 nM.
Regarding `CS(=O)(=O)N1CCC(Nc2ncc3ccnc(C4CCCC4O)c3n2)CC1` (stereo not shown), the IC50 on CDK2/CyclinE1 came to 6.58 nM; on CDK6/CyclinD1, 28.3 nM; on CDK2/CyclinA2, 1.4 nM; on CDK7/CyclinH/MAT1, 227 nM; at CDK9/CyclinT1, 303 nM; at CDK1/CyclinB1 it was 12.7 nM. Moreover, the IC50 on CDK4/CyclinD1 came out at 73.7 nM.
